The compounds below were run against Human immunodeficiency virus type 1 protease (Human immunodeficiency virus 1, UniProt Q72874) (assay: Binding affinity against HIV-1 protease.).
Work on `Cn1cnc(S(=O)(=O)Nc2cccc(C(c3c(O)cc(C(CC4CC4)CC4CC4)oc3=O)C3CC3)c2)c1` (racemic) yielded a Ki of 1000 pM. With `Cn1cnc(S(=O)(=O)Nc2cccc(C(c3c(O)cc(C(CC4CC4)CC4CC4)oc3=O)C3CC3)c2)c1` (single isomer, unassigned; enantiomer 2) the Ki was 840 pM. `Cn1cnc(S(=O)(=O)Nc2cccc(C(c3c(O)cc(C(CC4CC4)CC4CC4)oc3=O)C3CC3)c2)c1` (single isomer, unassigned; enantiomer 1) gave a Ki of 740 pM. In the case of `Cn1cnc(S(=O)(=O)Nc2cccc(C(c3c(O)cc(C(CC4CC4)CC4CC4)oc3=O)C3CC3)c2)c1` (stereo in doubt), the Ki is reported as 1000 pM.
